# Experimental data from patent US20150336996A1, “MANGANESE-BASED MAGNETIC RESONANCE CONTRAST AGENTS” (THE GENERAL HOSPITAL CORPORATION, priority 2013, published 2015).
# Experiment: UV spectrum as a function of pH (phenol deprotonation pKa)
# Assay type: physicochemical
# Conditions: fit of UV absorbance vs pH
# Protocol: To probe the speciation of the manganese complexes in solution, pH titrations of 1:1 Mn^2+:ligand were performed using a 1 N NaOH under N2 atmosphere (FIG. 21).
# To determine the species that exists in these two pH ranges the UV spectrum as a function of pH was monitored (see FIGS. 22-24). […] As the pH is increased the phenol deprotonates and coordinates to the manganese center.
substance,measurement,value
"2,2′-((2-((carboxymethyl)(2-hydroxy-5-methoxybenzyl)amino)cyclohexyl)azanediyl)diacetic acid [Compound 26]",pKa for ionization of the phenol,5.01
